Data published in paper PMC7073924, “2-Aminomethylene-5-sulfonylthiazole Inhibitors of Lysyl Oxidase (LOX) and LOXL2 Show Significant Efficacy in Delaying Tumor Growth” (Journal of Medicinal Chemistry, 2019).
Where “and” joins values, the source holds several entries; their conditions need not be identical. Equal values may be shown once. Where a name gives a salt, the structure may show the parent alone. Read-outs that look alike come from different tables or passages of the source.

Sequences of proteins named here, by UniProt entry; tags and fusion partners are left off.
UniProt P27338, whole entry, species assumed: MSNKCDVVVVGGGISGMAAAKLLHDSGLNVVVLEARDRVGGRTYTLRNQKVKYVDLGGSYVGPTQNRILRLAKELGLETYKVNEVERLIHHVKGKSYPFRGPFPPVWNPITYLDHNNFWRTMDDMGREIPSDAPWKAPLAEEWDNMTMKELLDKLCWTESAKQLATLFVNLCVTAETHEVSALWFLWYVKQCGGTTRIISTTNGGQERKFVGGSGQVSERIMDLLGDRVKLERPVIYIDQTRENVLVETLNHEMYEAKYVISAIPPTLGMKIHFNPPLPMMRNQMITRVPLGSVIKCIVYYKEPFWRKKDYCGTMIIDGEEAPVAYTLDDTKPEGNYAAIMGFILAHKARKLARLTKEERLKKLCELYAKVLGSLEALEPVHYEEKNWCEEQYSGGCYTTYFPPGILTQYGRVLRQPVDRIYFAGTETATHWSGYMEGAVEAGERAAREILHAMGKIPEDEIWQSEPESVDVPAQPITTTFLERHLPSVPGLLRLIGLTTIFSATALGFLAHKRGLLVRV
UniProt P21397, whole entry, species assumed: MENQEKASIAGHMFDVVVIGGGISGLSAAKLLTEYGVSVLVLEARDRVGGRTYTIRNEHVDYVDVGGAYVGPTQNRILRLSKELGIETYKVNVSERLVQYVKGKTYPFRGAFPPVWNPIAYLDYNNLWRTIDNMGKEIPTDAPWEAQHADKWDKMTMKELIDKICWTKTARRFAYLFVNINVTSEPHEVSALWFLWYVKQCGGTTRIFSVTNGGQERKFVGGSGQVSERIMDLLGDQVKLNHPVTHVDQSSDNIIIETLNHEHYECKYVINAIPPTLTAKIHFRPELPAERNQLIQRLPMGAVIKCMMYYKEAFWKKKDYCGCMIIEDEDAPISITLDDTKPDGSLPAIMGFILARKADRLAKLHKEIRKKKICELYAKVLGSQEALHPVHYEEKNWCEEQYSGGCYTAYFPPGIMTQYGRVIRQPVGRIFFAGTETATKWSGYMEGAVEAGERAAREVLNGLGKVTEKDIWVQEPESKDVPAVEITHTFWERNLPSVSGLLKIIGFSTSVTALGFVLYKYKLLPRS

Legend:
LOXL2 = target: T1, LOXL2 (Homo sapiens, UniProt Q9Y4K0); assay: LOXL2 enzyme assay (Promega ROS-Glo, cadaverine substrate); assay type: biochemical; design: Activity (LOXL2 activity used in the RVM model data matrix): unit not given here
T1 sequence (Q9Y4K0 26-774): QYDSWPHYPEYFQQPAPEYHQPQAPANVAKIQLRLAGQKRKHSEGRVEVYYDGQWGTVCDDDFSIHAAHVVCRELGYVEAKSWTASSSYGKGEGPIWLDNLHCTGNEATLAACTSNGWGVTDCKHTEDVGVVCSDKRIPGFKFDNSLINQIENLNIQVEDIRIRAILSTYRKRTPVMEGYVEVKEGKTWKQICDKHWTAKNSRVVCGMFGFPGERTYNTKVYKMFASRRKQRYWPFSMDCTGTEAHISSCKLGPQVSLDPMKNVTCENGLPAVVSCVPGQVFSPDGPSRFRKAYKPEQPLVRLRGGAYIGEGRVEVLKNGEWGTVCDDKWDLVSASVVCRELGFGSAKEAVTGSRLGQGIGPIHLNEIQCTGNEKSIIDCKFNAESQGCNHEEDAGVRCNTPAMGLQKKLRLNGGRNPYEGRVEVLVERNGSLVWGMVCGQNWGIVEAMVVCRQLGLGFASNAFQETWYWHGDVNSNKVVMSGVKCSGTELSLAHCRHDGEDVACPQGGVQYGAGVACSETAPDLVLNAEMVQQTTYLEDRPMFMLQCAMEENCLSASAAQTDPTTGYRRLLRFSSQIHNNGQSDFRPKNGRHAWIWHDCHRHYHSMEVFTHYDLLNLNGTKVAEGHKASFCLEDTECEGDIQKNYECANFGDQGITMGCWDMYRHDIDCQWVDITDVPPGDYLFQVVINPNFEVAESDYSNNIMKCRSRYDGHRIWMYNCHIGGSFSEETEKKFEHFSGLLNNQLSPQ

LOXL3 = target: T2, LOXL3 (Homo sapiens, UniProt P58215); assay: LOXL3 enzyme assay (Promega ROS-Glo, cadaverine substrate); assay type: biochemical; conditions: read-out: LOXL3 IC50
T2 sequence (P58215 26-753): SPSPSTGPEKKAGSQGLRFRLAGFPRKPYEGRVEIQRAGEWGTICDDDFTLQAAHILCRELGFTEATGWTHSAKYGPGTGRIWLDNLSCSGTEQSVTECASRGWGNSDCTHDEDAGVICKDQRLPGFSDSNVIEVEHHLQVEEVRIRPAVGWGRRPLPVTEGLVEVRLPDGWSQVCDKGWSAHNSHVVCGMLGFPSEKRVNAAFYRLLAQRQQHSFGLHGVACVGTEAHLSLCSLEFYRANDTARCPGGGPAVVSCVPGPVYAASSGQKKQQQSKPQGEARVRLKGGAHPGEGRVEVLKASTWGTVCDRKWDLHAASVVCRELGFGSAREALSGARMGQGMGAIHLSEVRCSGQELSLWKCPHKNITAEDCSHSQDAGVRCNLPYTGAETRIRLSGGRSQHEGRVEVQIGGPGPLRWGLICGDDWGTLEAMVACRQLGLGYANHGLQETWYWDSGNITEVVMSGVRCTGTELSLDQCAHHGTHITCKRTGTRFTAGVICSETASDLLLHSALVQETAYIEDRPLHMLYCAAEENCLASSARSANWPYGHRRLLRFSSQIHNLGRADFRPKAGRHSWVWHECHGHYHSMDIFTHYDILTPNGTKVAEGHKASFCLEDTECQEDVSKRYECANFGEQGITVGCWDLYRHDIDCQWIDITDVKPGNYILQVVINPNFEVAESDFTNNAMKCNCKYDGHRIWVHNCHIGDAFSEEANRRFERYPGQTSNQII

SSAO = target: T3, SSAO (Homo sapiens, UniProt Q16853); assay type: biochemical; conditions: Table 7
T3 construct: purchased Sigma
T3 sequence (Q16853 1-763): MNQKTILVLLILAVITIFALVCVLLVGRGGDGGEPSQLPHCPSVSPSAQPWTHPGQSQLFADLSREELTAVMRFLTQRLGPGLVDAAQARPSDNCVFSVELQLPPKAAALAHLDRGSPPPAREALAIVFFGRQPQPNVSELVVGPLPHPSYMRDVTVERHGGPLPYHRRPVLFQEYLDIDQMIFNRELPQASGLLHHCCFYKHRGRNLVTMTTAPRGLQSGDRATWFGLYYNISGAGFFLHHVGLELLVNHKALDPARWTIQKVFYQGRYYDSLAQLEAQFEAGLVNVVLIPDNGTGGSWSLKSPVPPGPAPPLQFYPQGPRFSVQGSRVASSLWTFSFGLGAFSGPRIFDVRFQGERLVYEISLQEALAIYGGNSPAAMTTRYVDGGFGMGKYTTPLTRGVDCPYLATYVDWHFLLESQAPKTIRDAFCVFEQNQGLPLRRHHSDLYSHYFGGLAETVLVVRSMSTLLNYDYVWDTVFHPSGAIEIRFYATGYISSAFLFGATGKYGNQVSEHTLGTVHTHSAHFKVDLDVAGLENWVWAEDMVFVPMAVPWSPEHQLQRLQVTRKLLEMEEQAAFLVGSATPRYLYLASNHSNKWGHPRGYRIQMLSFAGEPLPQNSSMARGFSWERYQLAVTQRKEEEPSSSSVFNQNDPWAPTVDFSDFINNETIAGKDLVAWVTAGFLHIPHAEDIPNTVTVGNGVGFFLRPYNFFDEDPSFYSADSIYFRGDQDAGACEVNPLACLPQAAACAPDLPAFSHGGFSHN

MAO-B = target: T4, MAO-B (Homo sapiens, UniProt P27338); assay type: biochemical
T4 construct: purchased Sigma

LOX = target: T5, LOX (Sus scrofa, UniProt P45845); assay: LOX enzyme assay (Promega ROS-Glo, cadaverine substrate); assay type: biochemical, pig
T5 sequence (P45845 1-249): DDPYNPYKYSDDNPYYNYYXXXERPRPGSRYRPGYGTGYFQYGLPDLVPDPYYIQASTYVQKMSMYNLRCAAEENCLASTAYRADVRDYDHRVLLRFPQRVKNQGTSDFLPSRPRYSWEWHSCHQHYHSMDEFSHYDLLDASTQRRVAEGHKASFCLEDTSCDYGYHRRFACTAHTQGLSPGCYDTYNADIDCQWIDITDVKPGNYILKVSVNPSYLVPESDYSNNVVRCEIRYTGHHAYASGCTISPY

DAO = target: T6, DAO (Sus scrofa, UniProt Q9TRC7); assay type: biochemical; conditions: Table 7
T6 construct: purchased Sigma
T6 sequence (Q9TRC7 25-755): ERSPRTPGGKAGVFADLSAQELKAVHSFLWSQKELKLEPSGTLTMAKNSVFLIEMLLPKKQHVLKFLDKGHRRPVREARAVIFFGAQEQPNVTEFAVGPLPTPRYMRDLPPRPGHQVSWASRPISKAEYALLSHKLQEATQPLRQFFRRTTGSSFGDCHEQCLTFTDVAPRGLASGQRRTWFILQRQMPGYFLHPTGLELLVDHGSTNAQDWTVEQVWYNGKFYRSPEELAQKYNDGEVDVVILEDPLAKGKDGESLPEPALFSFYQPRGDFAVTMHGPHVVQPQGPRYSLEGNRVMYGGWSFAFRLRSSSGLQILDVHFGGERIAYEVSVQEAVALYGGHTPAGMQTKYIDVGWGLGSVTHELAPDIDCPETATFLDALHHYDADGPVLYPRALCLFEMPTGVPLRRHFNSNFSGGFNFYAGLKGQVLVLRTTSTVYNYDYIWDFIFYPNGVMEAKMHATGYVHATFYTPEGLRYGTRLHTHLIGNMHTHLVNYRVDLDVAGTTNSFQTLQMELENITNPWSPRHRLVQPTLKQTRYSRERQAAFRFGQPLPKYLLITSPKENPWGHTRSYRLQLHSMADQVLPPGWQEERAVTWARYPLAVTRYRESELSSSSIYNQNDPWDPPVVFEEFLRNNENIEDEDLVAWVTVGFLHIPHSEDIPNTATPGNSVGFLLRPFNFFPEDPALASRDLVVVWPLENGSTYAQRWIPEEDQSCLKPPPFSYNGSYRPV

MAO-A = target: T7, MAO-A (Homo sapiens, UniProt P21397); assay type: biochemical
T7 construct: purchased Sigma

## NCc1ncc(S(=O)(=O)c2cccc(-c3ccccc3)c2)s1 [Compound 15, (5-([1,1′-Biphenyl]-3-ylsulfonyl)thiazol-2-yl)methanamine Hydrochloride]
LOXL2; read-out: LOXL2 IC50
  IC50: 366 nM and 342 nM

## CCc1cc(-c2cnn(C)c2)cc(S(=O)(=O)c2csc(CN)n2)c1 [Compound 22d, (4-((3-Ethyl-5-(1-methyl-1H-pyrazol-4-yl)phenyl)sulfonyl)thiazol-2-yl)methanamine Hydrochloride]
LOXL3
  IC50: 24200 nM and 36900 nM
SSAO
  IC50: 102000 nM and 74300 nM
LOXL2; LOXL2, 20 min, IC50
  IC50: 1240 nM and 1370 nM
LOXL2; read-out: LOXL2, 1 h, IC50
  IC50: 425 nM
LOXL2; read-out: LOXL2, 3 h, IC50
  IC50: 199 nM and 176 nM
LOXL2; read-out: LOXL2 IC50
  IC50: 425 nM
MAO-B; Table 7
  IC50: > 100000 nM
LOX
  activity against LOX (in words): inactive
LOX; LOX IC50
  IC50: > 100000 nM
DAO
  IC50: > 100000 nM
MAO-A; Table 7
  IC50: > 100000 nM

## CC(C)(C)c1cc(-c2ccccc2)cc(S(=O)(=O)c2cnc(CN)s2)c1 [Compound 7g, (5-((5-(tert-Butyl)-[1,1′-biphenyl]-3-yl)sulfonyl)thiazol-2-yl)methanamine Hydrochloride]
LOXL2; read-out: LOXL2 IC50
  IC50: 1040 nM

## CNc1cc(-c2ccccc2)cc(S(=O)(=O)c2cnc(CN)s2)c1 [Compound 7i, 5-((2-(Aminomethyl)thiazol-5-yl)sulfonyl)-N-methyl-[1,1′-biphenyl]-3-amine Dihydrochloride]
LOXL2; read-out: LOXL2 IC50
  IC50: 417 nM and 397 nM

## CS(=O)(=O)c1cc(-c2ccc(F)cc2)cc(S(=O)(=O)c2cnc(CN)s2)c1 [Compound 20, (5-((4′-Fluoro-5-(methylsulfonyl)-[1,1′-biphenyl]-3-yl)sulfonyl)thiazol-2-yl)methanamine Hydrochloride]
LOXL2; read-out: LOXL2 IC50
  IC50: 197 nM and 192 nM

## NCc1cnc(S(=O)(=O)c2ccc3ccccc3c2)s1 [Compound 5]
LOXL2; read-out: LOXL2, 1 h, IC50
  IC50: 6410 nM and 6020 nM
LOXL2; read-out: LOXL2, 3 h, IC50
  IC50: 3540 nM and 3190 nM

## NCc1ncc(S(=O)(=O)c2ccc3ccccc3c2)s1 [Compound 6]
LOXL2
  increase in LOXL2 potency on increasing preincubation from 20 min to 1 h: ≤ 5 fold

## CS(=O)(=O)c1cc(-c2ccc(C(F)(F)F)cc2)cc(S(=O)(=O)c2cnc(CN)s2)c1 [Compound 19, (5-((5-(Methylsulfonyl)-4′-(trifluoromethyl)-[1,1′-biphenyl]-3-yl)sulfonyl)thiazol-2-yl)methanamine Hydrochloride]
LOXL2; read-out: LOXL2 IC50
  IC50: 174 nM

## Cc1ccc(-c2cc(S(C)(=O)=O)cc(S(=O)(=O)c3cnc(CN)s3)c2)cc1 [Compound 18, (5-((4′-Methyl-5-(methylsulfonyl)-[1,1′-biphenyl]-3-yl)sulfonyl)thiazol-2-yl)methanamine Hydrochloride]
LOXL2
  Activity (LOXL2 activity used in the RVM model data matrix): 6.99
LOXL2; read-out: LOXL2 IC50
  IC50: 103 nM
MAO-B
  IC50: 16400 nM and 20000 nM
MAO-A
  IC50: 100000 nM and 88300 nM

## Cn1cc(-c2cc(S(C)(=O)=O)cc(S(=O)(=O)c3csc(CN)n3)c2)cn1 [Compound 22c, (4-((3-(1-Methyl-1H-pyrazol-4-yl)-5-(methylsulfonyl)phenyl)sulfonyl)thiazol-2-yl)methanamine Hydrochloride]
LOX
  activity against LOX (in words): inactive

## Cn1cc(-c2cc(F)cc(S(=O)(=O)c3cnc(CN)s3)c2)cn1 [Compound 21e, (5-((3-Fluoro-5-(1-methyl-1H-pyrazol-4-yl)phenyl)sulfonyl)thiazol-2-yl)methanamine Hydrochloride]
LOXL2
  LOXL2 pIC50: 6.84
LOXL2; read-out: LOXL2 IC50
  IC50: 143 nM

## NCc1ncc(S(=O)(=O)c2ccccc2)s1 [Compound 12, (5-(Phenylsulfonyl)thiazol-2-yl)methanamine Hydrochloride]
LOXL2; read-out: LOXL2 IC50
  IC50: 316 nM and 310 nM

## Cc1ccc(-c2cc(S(=O)(=O)c3cnc(CN)s3)ccc2S(C)(=O)=O)cc1 [Compound 9, (5-((4′-Methyl-6-(methylsulfonyl)-[1,1′-biphenyl]-3-yl)sulfonyl)thiazol-2-yl)methanamine Hydrochloride]
LOXL2; read-out: LOXL2, IC50
  IC50: 423 nM

## CS(=O)(=O)c1cc(-c2ccccc2)cc(S(=O)(=O)c2csc(CN)n2)c1 [Compound 22b, (4-((5-(Methylsulfonyl)-[1,1′-biphenyl]-3-yl)sulfonyl)thiazol-2-yl)methanamine Hydrochloride]
LOX
  activity against LOX (in words): inactive

## Cn1cc(-c2cc(C(F)(F)F)cc(S(=O)(=O)c3cnc(CN)s3)c2)cn1 [Compound 21c, (5-((3-(1-Methyl-1H-pyrazol-4-yl)-5-(trifluoromethyl)phenyl)sulfonyl)thiazol-2-yl)methanamine Hydrochloride]
LOXL2; read-out: LOXL2 IC50
  IC50: 259 nM and 374 nM

## NCc1ncc(S(=O)(=O)C2CCCCC2)s1 [Compound 11, (5-(Cyclohexylsulfonyl)thiazol-2-yl)methanamine Hydrochloride]
LOXL2; read-out: LOXL2 IC50
  IC50: 628 nM and 606 nM

## CC(C)c1cc(-c2ccccc2)cc(S(=O)(=O)c2cnc(CN)s2)c1 [Compound 7f, (5-((5-Isopropyl-[1,1′-biphenyl]-3-yl)sulfonyl)thiazol-2-yl)methanamine Hydrochloride]
LOXL2; read-out: LOXL2 IC50
  IC50: 343 nM and 370 nM
